# Measured affinities in a library of Ab-14 light chain variants

All variants were tested on one target, the spike HR2 peptide PDVDLGDISGINAS (SARS-CoV-2).

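The parent was found by panning a naive human phage display library on the peptide. These sequences belong to a second round, designed from the earlier measurements on random variants of the parent. Their group label is 14L_En_Gen (En: ensemble of fine-tuned language models; Gen: genetic algorithm). The assay is AlphaSeq: two haploid yeast populations carry antibody and antigen on their surface. Pairs that bind mate more often; barcode pairs of the diploids are counted by sequencing. A regression on co-assayed BCL2-family reference pairs converts the normalised counts of each replicate to an apparent Kd. The assay was run in six technical replicates.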

Parent: Ab-14, a human scFv built as VH, a (GGGGS)3 linker, VL. Only the CDRs of the light chain vary.
VH: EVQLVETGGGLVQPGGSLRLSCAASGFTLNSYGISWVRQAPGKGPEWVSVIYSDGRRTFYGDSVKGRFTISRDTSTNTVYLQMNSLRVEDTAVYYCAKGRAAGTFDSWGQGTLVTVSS
VL: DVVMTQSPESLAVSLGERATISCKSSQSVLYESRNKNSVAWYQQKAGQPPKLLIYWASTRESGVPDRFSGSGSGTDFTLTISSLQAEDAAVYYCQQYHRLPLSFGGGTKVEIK

Variants are written as CDR1, CDR2 and CDR3 of the light chain (limits as in the source). Parent: KSSQSVLYESRNKNSVA, WASTRES, QQYHRLPLS. Scale: log10 of Kd in nM, estimated from mating counts; low values are strong binders. "ND" means that the variant was in the library but no mating with the target was seen in that replicate; the authors take this as a sign of poor binding, and no number exists.

| # | CDR-L1 | CDR-L2 | CDR-L3 | log10 Kd (nM) by replicate | empty controls |
|---|---|---|---|---|---|
| 1 | KIGMTLNQMMHKKNNVA | DLVMREN | QQYHRLPLS | 0.42 / 0.32 / -0.01 / 0.43 / 0.64 / 0.68 | 0/18 |
| 2 | MVYQATMMGTSTRNSIA | NATMRPD | QQYHRLPLI | 0.48 / 0.71 / 0.84 / 0.90 / 0.54 / 1.04 | 1/18 (2.54) |
| 3 | KVSEFMKGLMMRKDSIA | DNTTREN | QQYDRLPLS | ND / 2.69 / ND / ND / ND / ND | 0/18 |
| 4 | IVSQLMMWGMHAKNSIA | EAVTRIN | QQYDRLPLF | 2.38 / ND / ND / ND / ND / 2.65 | 1/18 (1.74) |
| 5 | HITYGMMVHGRISKSIA | QAEERAK | QQYDRLPLA | 1.30 / 0.98 / 1.04 / 0.32 / 0.27 / 0.95 | 1/18 (1.20) |
| 6 | HMSMLTLSGMRHRNSVA | QMTTREN | QQYDRLPLS | 1.90 / 2.10 / 2.85 / ND / 1.84 / 1.90 | 0/18 |
| 7 | MISQLMNMGQFAINSVA | QAEIRNA | QQYDRLPLI | ND / ND / ND / ND / ND / ND | 0/18 |
| 8 | HMSALTLGGMRARNSVA | QMTTREN | QQYDRLPLS | 0.14 / 0.49 / 0.68 / 0.11 / 0.10 / 0.32 | 1/18 (3.32) |
| 9 | TLYGLTNSMSKNKDNVA | EMSTREL | QQYDRLPLA | 1.41 / 1.93 / 1.22 / 1.21 / 1.05 / 1.19 | 0/18 |
| 10 | MISQLMNLGQFAINSVA | QATIRNS | QQYDRLPLT | ND / ND / ND / ND / ND / ND | 0/18 |
| 11 | KLTSITGTEKVKGNNVA | EMETREK | QQYNRLPLS | 0.07 / 0.08 / -0.15 / -0.01 / 0.12 / 0.02 | 4/18 (2.60) |
| 12 | MIQQLYNMGTFAINSVA | QASLRNE | QQYDRLPLM | 1.17 / 1.85 / 2.28 / 1.64 / 1.55 / 1.57 | 1/18 (3.50) |
| 13 | IVSQLMMWGMHAKNSIA | EAVTRIN | QQYDRLPLI | ND / ND / 1.97 / 1.73 / 2.63 / 1.31 | 1/18 (1.92) |
| 14 | IVSQLMLWGMHAKNSIA | EATMRTN | QQYDRLPLF | 0.69 / 0.52 / 0.84 / 0.71 / 0.23 / 1.01 | 0/18 |
| 15 | KLSWVQGHMSVSKNNVA | EMETRVN | QQYDRLPLS | 0.07 / 0.08 / 0.26 / 0.00 / 0.07 / 0.31 | 0/18 |
| 16 | MVTQMAMTGMTNKRSVA | NAEMREN | QQYHRLPLI | ND / 2.47 / ND / ND / 1.53 / 1.95 | 0/18 |
| 17 | HLGLATMLEETRVNSVA | NNSTRED | QQYDRLPLS | ND / ND / 2.00 / ND / ND / ND | 0/18 |
| 18 | KISQMSRVGSTHSNSIA | EEATRSK | QQYHRLPLA | 1.53 / 0.72 / 1.06 / 0.67 / 0.77 / 1.09 | 1/18 (2.72) |
| 19 | MISQLMNLGQFAINSVA | QASLRNA | QQYDRLPLT | 2.20 / 2.23 / 1.66 / 2.25 / 1.06 / ND | 0/18 |
| 20 | MISQLYNMGQFAINSVA | QASLRCN | QQYDRLPLT | ND / ND / 2.11 / ND / 2.60 / ND | 0/18 |
| 21 | MIGQVAFGLSRKANSVA | DNSTRED | QQYDRLPLS | ND / 3.34 / ND / 2.43 / ND / ND | 1/18 (1.41) |
| 22 | TISQMSTLFSQSINNVA | EVSTRLV | QQYDRLPLM | 1.56 / 1.23 / 1.00 / 1.14 / 1.24 / 1.48 | 1/18 (2.56) |
| 23 | TISQVMNTLTREGNNVA | DLAERED | QQYFRLPLS | 0.18 / 0.72 / 0.52 / 0.70 / 0.75 / 0.55 | 0/18 |
| 24 | KLSGLMASSKFAKNNVA | ENNTRED | QQYERLPLS | ND / ND / 1.02 / ND / ND / 2.77 | 0/18 |
| 25 | KVSEFMRGLMMRKDNIA | DNNTRNS | QQYDRLPLS | 1.15 / 1.77 / 1.87 / 1.25 / 1.70 / 2.58 | 3/18 (2.71) |
| 26 | MISQVLNTLTKEGNNVA | DLAERED | QQYFRLPLS | 0.90 / 0.83 / -0.03 / -0.03 / 0.88 / 1.23 | 1/18 (1.61) |
| 27 | TIGQTLMQGIRNRSNVA | EVSQRLN | QQYDRLPLI | ND / ND / ND / ND / ND / ND | 1/18 (2.40) |
| 28 | KLTATMRFELSKSNNIA | EVTTRSK | QQYYRLPLA | 1.15 / 0.73 / 0.69 / 0.82 / 0.93 / 0.66 | 0/18 |
| 29 | TIGGTLMYGVRNRSNVA | EVSERLN | QQYDRLPLI | 1.39 / 1.57 / 1.16 / 1.31 / 1.16 / 1.06 | 0/18 |
| 30 | MMSQVTGQGMRHRNNVA | QTSTREP | QQYDRLPLI | 0.79 / 0.69 / 0.62 / 0.56 / 1.03 / 0.92 | 3/18 (2.14) |
| 31 | KLTMISGLEKVSKNNVA | EMETRYE | QQYNRLPLS | 0.06 / 0.07 / 0.10 / 0.23 / -0.21 / 0.38 | 0/18 |
| 32 | KIGATLNTLYEKANNVA | DLVEREN | QQYHRLPLS | 2.76 / 0.74 / ND / 1.10 / 0.96 / 1.26 | 0/18 |
| 33 | MIGGTLMYGVMNRSNVA | EVSERLN | QQYDRLPLI | 0.66 / 1.10 / 1.19 / 1.17 / 0.75 / 1.46 | 2/18 (2.51) |
| 34 | TLYGLSNSMSTNKNSVA | EMTTREK | QQYDRLPLI | 2.23 / ND / ND / ND / ND / ND | 0/18 |
| 35 | TIGQTLMIGMRNRSNVA | EVSERLN | QQYDRLPLL | 2.02 / 2.09 / 2.09 / 2.48 / 4.22 / 2.23 | 1/18 (4.10) |
| 36 | TISMVMNTLQRHGNNVA | DLAERED | QQYFRLPLS | 0.31 / 0.47 / 0.06 / 0.18 / 1.14 / 0.38 | 0/18 |
| 37 | HITYGMQVMGRHSKSIA | QAEERAK | QQYDRLPLT | 0.89 / 0.64 / 1.85 / 1.33 / 1.03 / 1.45 | 1/18 (2.38) |
| 38 | KFSQMVNSMSVSHSAVA | EMSTRES | QQYNRLPLA | 0.70 / 0.54 / 0.39 / 0.48 / 0.53 / 0.50 | 0/18 |
| 39 | TISQMTSLFSQSINNVA | EVSMREK | QQYDRLPLS | ND / ND / ND / ND / ND / ND | 0/18 |
| 40 | MISQLYNMGQFAINSVA | QAQTRNE | QQYDRLPLI | 0.98 / 0.91 / 0.31 / 1.35 / 1.54 / ND | 1/18 (1.40) |
| 41 | MISQLFNMGQFAINSVA | QASQRCE | QQYDRLPLL | 2.23 / 2.03 / 1.93 / 1.76 / 2.73 / 1.42 | 2/18 (2.32) |
| 42 | KIGMTLNMMMRKKNNVA | DLVTREN | QQYHRLPLS | 1.46 / 1.04 / 1.31 / 0.90 / 0.47 / 1.28 | 0/18 |
| 43 | TLYGLSNSMSKNKNNVA | EMSTREP | QQYDRLPLI | 0.49 / 0.27 / 0.20 / 0.28 / 0.39 / 0.39 | 1/18 (3.38) |
| 44 | MLSQMTGLGMKAKNSVA | QANMRFD | QQYHRLPLL | 1.18 / 0.94 / 0.79 / 0.99 / 1.20 / 1.12 | 1/18 (2.11) |
| 45 | MISQLYNLGTFAINSVA | QASVRNE | QQYDRLPLQ | 1.30 / 0.90 / 1.18 / 1.72 / 1.79 / 1.10 | 1/18 (2.13) |

The 7 strongest on average among those seen in every replicate, once more:

CDR-L1	CDR-L2	CDR-L3	log10 Kd (nM) by replicate	empty controls
KLTSITGTEKVKGNNVA	EMETREK	QQYNRLPLS	0.07 / 0.08 / -0.15 / -0.01 / 0.12 / 0.02	4/18 (2.60)
KLTMISGLEKVSKNNVA	EMETRYE	QQYNRLPLS	0.06 / 0.07 / 0.10 / 0.23 / -0.21 / 0.38	0/18
KLSWVQGHMSVSKNNVA	EMETRVN	QQYDRLPLS	0.07 / 0.08 / 0.26 / 0.00 / 0.07 / 0.31	0/18
HMSALTLGGMRARNSVA	QMTTREN	QQYDRLPLS	0.14 / 0.49 / 0.68 / 0.11 / 0.10 / 0.32	1/18 (3.32)
TLYGLSNSMSKNKNNVA	EMSTREP	QQYDRLPLI	0.49 / 0.27 / 0.20 / 0.28 / 0.39 / 0.39	1/18 (3.38)
KIGMTLNQMMHKKNNVA	DLVMREN	QQYHRLPLS	0.42 / 0.32 / -0.01 / 0.43 / 0.64 / 0.68	0/18
TISMVMNTLQRHGNNVA	DLAERED	QQYFRLPLS	0.31 / 0.47 / 0.06 / 0.18 / 1.14 / 0.38	0/18

The authors averaged sequences with at least three values out of six and counted those with two or fewer as poor binders. Three control strains display no target. For all light chain designs, 4% of the pairings with them gave a signal, with a median of 2.64 and one signal in twenty below 1.59, so weak values seen in few replicates may be background. For each scFv, signals with the empty controls are counted beside the result, with their mean in brackets. The range of this assay differs from that of the first round, and the authors advise against merging the two.

From the AlphaSeq antibody data of Li et al. 2023 (doi:10.1038/s41467-023-39022-2), copy in the FLAb collection.